Measured values as given in article PMC5679667, “Imaging extracellular ATP with a genetically-encoded, ratiometric fluorescent sensor” (PLoS ONE, 2017).

By UniProt entry, the sequences of proteins in these tests, tags left out. Where a name states a change or a piece, a line headed by the entry shows the natural chain unless it says otherwise.
UniProt P07678: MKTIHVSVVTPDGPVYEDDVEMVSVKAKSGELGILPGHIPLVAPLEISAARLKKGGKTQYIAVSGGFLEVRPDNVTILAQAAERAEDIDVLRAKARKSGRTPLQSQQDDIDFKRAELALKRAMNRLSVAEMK

Target: T1, ecAT3.10 (extracellular ATeam3.10) (Bacillus sp. PS3, UniProt P07678)
T1 construct: gene atpC; ATeam3.10 (epsilon subunit between CFP and YFP) with N-terminal IgK leader and C-terminal PDGFR transmembrane anchor; on surface of Neuro2A cells
Assay: live-cell FRET/CFP ratio imaging, Hill fit
Format: cell-based
Details: read-out: Kapp

Nc1ncnc2c1ncn2[C@@H]1O[C@H](COP(=O)(O)OP(=O)(O)OP(=O)(O)O)[C@@H](O)[C@H]1O [ATP]
Kd: 12 ± 5 µM
